In PubChem BioAssay AID811 (The Scripps Research Institute Molecular Screening Center, 2007):
Only a part is listed here, and it is no random draw. Active and inactive are the calls of the source. Rule as the data show it: active = inhibition above about 45%; inactive = the rest.

Protein sequences, listed by entry. Tags and fused reporters are not part of them.
UniProt O00206, whole entry: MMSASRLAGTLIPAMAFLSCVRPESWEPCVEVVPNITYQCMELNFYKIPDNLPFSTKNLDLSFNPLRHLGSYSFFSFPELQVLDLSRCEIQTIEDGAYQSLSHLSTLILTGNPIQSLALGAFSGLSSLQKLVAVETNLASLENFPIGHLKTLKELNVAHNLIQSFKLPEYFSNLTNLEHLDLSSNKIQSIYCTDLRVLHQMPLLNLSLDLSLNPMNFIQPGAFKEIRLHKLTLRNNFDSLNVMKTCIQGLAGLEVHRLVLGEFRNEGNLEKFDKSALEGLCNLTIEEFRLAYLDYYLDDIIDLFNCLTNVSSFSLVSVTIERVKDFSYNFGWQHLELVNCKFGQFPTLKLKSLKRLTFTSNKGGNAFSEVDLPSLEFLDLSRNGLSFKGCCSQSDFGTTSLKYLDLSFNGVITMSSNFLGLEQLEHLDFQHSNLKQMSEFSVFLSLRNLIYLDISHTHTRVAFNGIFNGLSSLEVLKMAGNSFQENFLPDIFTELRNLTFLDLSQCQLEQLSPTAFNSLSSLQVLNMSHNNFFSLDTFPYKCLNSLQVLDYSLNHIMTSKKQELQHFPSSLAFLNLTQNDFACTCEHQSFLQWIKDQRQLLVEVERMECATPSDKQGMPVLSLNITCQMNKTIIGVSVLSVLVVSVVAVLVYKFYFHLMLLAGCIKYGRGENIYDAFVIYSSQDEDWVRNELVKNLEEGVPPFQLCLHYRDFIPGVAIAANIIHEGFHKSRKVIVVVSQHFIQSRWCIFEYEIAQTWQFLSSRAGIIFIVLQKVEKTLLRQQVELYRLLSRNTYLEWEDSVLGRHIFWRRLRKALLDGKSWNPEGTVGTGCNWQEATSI

target: Toll-like receptor 4 (Homo sapiens) (UniProt O00206); experiment: inhibitors of human TLR4-MyD88 binding (AID 811); settings: Cell-based TLR4-MyD88 binding inhibition assay; at 10 µM; stronger effect = higher value

| SMILES | inhibition |
| --- | --- |
| O=[N+]([O-])C1([N+](=O)[O-])COCOC1 | inactive: 18.8% |
